Laboratory results published in patent US20060074046A1, “Oral administration of decitabine salt” (priority 2004, published 2006).

Conditions: t = 24 hr, 0.05 M phosphate buffer, 0.5 mg/mL, ambient

Nc1ncn([C@@H]2O[C@H](CO)[C@@H](O)[C@H]2O)c(=O)n1 [Compound 2, 5-azacytidine, reference compound]
Potency Found (%) At pH 2.5: 54.85%
